Experimental data published in US6706716B2, “Compounds specific for the human α1d adrenergic receptor and uses thereof” (Synaptic Pharmaceutical Corporation, priority 1998, dated 2004).

Protein sequences, listed by entry. Tags and fused reporters are not part of them.
UniProt P35368, whole entry: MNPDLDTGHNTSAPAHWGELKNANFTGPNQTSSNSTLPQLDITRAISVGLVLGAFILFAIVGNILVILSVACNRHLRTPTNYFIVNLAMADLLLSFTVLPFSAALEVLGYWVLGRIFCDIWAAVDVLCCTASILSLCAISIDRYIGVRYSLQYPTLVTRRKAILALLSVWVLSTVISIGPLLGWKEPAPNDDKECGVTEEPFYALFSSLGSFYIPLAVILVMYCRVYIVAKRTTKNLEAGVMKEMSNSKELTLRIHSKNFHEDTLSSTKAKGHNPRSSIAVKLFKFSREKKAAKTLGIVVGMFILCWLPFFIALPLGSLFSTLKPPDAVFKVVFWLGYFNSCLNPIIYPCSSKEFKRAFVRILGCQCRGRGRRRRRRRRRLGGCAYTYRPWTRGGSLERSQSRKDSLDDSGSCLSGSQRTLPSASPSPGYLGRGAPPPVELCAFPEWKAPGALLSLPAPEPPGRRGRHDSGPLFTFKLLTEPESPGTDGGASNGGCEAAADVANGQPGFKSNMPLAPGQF

Biological target: T1, human α1b adrenergic receptor (Homo sapiens, UniProt P35368)
T1 construct: The entire coding region of α1b (1563 bp); expressed in transfected cells
Experiment: Radioligand binding ([3H]prazosin) at cloned human α1b adrenergic receptor
Settings: LM(tk-) cell membranes, read-out: Binding affinities (pKi) α1b (converted)
Method: The binding of a test compound to a receptor of interest was generally evaluated by competitve binding assays using membrane preparations derived from cells which expressed the receptor. First, conditions were determined which allowed measurement of the specific binding of a compound known to bind to the receptor. Then, the binding of the known compound to the receptor in membrane preparations was evaluated in the presence of several different concentrations of the test compound.
The binding properties of compounds at the different human receptors were determined in vitro using cultured cell lines that selectively express the receptor of interest. These cell lines were prepared by transfecting the cloned cDNA or cloned genomic DNA or constructs containing both genomic DNA and cDNA encoding the human receptors as described below.
α1b Human Adrenergic Receptor: The entire coding region of α1b (1563 bp), including 200 base pairs of 5′ untranslated sequence (5′ UT) and 600 bp of 3′ untranslated sequence (3′ UT), was cloned into the EcoRI site of pCEXV-3 eukaryotic expression vector. […]
Radioligand Binding Assays for α1 Human Adrenergic Receptors: Transfected cells from culture flasks were scraped into 5 ml of 5 mM Tris-HCl, 5 mM EDTA, pH 7.5, and lysed by sonication. […] Nonspecific binding was determined in the presence of 10 μM phentolamine. […]

A Ki of 158 nM was found for `C[C@H](CN1CCN(c2cc(F)c(F)cc2F)CC1)N1C(=O)CC2(CCCC2)CC1=O` [Compound 9, 8-{(1R)-2-[4-(2,4,5-Trifluorophenyl)piperazin-1-yl]-1-methylethyl}-8-azaspiro[4.5]decane-7,9-dione] in this work.
